# Assay results from PubChem BioAssay (NCI).
#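 Cells were grown in 96-well plates and exposed to each compound for 48 hours at five concentrations; endpoints were interpolated linearly between bracketing concentrations, or set to the highest concentration if not reached. GI50 marks 50% less growth. TGI is the concentration that stops growth completely.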
# Key:
# Test in all cases: NCI-60 cell line screen, 48 h
# OVCAR-5 ovarian = system: OVCAR-5 ovarian
# MALME-3M melanoma = system: MALME-3M melanoma
# HL-60(TB) leukemia = system: HL-60(TB) leukemia
# HOP-18 NSCLC = system: HOP-18 NSCLC
# CCRF-CEM leukemia = system: CCRF-CEM leukemia
# A498 renal = system: A498 renal
# KM12 colon = system: KM12 colon
# EKVX NSCLC = system: EKVX NSCLC
# HOP-62 NSCLC = system: HOP-62 NSCLC
# SK-OV-3 ovarian = system: SK-OV-3 ovarian
# KM20L2 colon = system: KM20L2 colon
# UO-31 renal = system: UO-31 renal
# HT29 colon = system: HT29 colon
# SK-MEL-2 melanoma = system: SK-MEL-2 melanoma
# NCI-H460 lung = system: NCI-H460 lung
# RPMI-8226 leukemia = system: RPMI-8226 leukemia
# CAKI-1 renal = system: CAKI-1 renal
# K-562 leukemia = system: K-562 leukemia
# OVCAR-3 ovarian = system: OVCAR-3 ovarian
# HCT-15 colon = system: HCT-15 colon
# NCI-H322M lung = system: NCI-H322M lung
# SN12C renal = system: SN12C renal
# NCI-H23 lung = system: NCI-H23 lung
# NCI-H226 lung = system: NCI-H226 lung
# HCC-2998 colon = system: HCC-2998 colon
# SW-620 colon = system: SW-620 colon
# SNB-75 CNS = system: SNB-75 CNS
# LOX IMVI melanoma = system: LOX IMVI melanoma
# SNB-78 CNS = system: SNB-78 CNS
# MOLT-4 leukemia = system: MOLT-4 leukemia
# SF-268 CNS = system: SF-268 CNS
# DMS 114 small cell lung = system: DMS 114 small cell lung
# TK-10 renal = system: TK-10 renal
# UACC-257 melanoma = system: UACC-257 melanoma
# DMS 273 small cell lung = system: DMS 273 small cell lung
# XF 498 CNS = system: XF 498 CNS
# M19-MEL melanoma = system: M19-MEL melanoma
# 786-0 renal = system: 786-0 renal
# COLO 205 colon = system: COLO 205 colon
# NCI-H522 lung = system: NCI-H522 lung
# UACC-62 melanoma = system: UACC-62 melanoma
# U251 CNS = system: U251 CNS
# LXFL 529 NSCLC = system: LXFL 529 NSCLC
# A549 NSCLC = system: A549 NSCLC
# OVCAR-8 ovarian = system: OVCAR-8 ovarian
# SK-MEL-28 melanoma = system: SK-MEL-28 melanoma
# SF-295 CNS = system: SF-295 CNS
# IGROV1 ovarian = system: IGROV1 ovarian
# HCT-116 colon = system: HCT-116 colon
# OVCAR-4 ovarian = system: OVCAR-4 ovarian
# ACHN renal = system: ACHN renal
# SK-MEL-5 melanoma = system: SK-MEL-5 melanoma
# SF-539 CNS = system: SF-539 CNS
# SNB-19 CNS = system: SNB-19 CNS
structure (smiles),measurement,setting,value
S=P1(Oc2ccccc2)NNP2(=NP(Cl)(Cl)=NP(Cl)(Cl)=N2)NN1 (stereo not drawn),GI50,OVCAR-5 ovarian,> 100 µM
same,TGI,OVCAR-5 ovarian,> 100 µM
same,GI50,MALME-3M melanoma,> 100 µM
same,TGI,MALME-3M melanoma,> 100 µM
same,GI50,HL-60(TB) leukemia,> 100 µM
same,TGI,HL-60(TB) leukemia,> 100 µM
same,GI50,HOP-18 NSCLC,> 100 µM
same,TGI,HOP-18 NSCLC,> 100 µM
same,GI50,CCRF-CEM leukemia,> 100 µM
same,TGI,CCRF-CEM leukemia,> 100 µM
same,GI50,A498 renal,> 100 µM
same,TGI,A498 renal,> 100 µM
same,GI50,KM12 colon,> 100 µM
same,TGI,KM12 colon,> 100 µM
same,GI50,EKVX NSCLC,> 100 µM
same,TGI,EKVX NSCLC,> 100 µM
same,GI50,HOP-62 NSCLC,> 100 µM
same,TGI,HOP-62 NSCLC,> 100 µM
same,GI50,SK-OV-3 ovarian,> 100 µM
same,TGI,SK-OV-3 ovarian,> 100 µM
same,GI50,KM20L2 colon,> 100 µM
same,TGI,KM20L2 colon,> 100 µM
same,GI50,UO-31 renal,> 100 µM
same,TGI,UO-31 renal,> 100 µM
same,GI50,HT29 colon,> 100 µM
same,TGI,HT29 colon,> 100 µM
same,GI50,SK-MEL-2 melanoma,> 100 µM
same,TGI,SK-MEL-2 melanoma,> 100 µM
same,GI50,NCI-H460 lung,> 100 µM
same,TGI,NCI-H460 lung,> 100 µM
same,GI50,RPMI-8226 leukemia,> 100 µM
same,TGI,RPMI-8226 leukemia,> 100 µM
same,GI50,CAKI-1 renal,> 100 µM
same,TGI,CAKI-1 renal,> 100 µM
same,GI50,K-562 leukemia,> 100 µM
same,TGI,K-562 leukemia,> 100 µM
same,GI50,OVCAR-3 ovarian,> 100 µM
same,TGI,OVCAR-3 ovarian,> 100 µM
same,GI50,HCT-15 colon,> 100 µM
same,TGI,HCT-15 colon,> 100 µM
same,GI50,NCI-H322M lung,> 100 µM
same,TGI,NCI-H322M lung,> 100 µM
same,GI50,SN12C renal,> 100 µM
same,TGI,SN12C renal,> 100 µM
same,GI50,NCI-H23 lung,> 100 µM
same,TGI,NCI-H23 lung,> 100 µM
same,GI50,NCI-H226 lung,> 100 µM
same,TGI,NCI-H226 lung,> 100 µM
same,GI50,HCC-2998 colon,> 100 µM
same,TGI,HCC-2998 colon,> 100 µM
same,GI50,SW-620 colon,> 100 µM
same,TGI,SW-620 colon,> 100 µM
same,GI50,SNB-75 CNS,85.2 µM
same,TGI,SNB-75 CNS,> 100 µM
same,GI50,LOX IMVI melanoma,> 100 µM
same,TGI,LOX IMVI melanoma,> 100 µM
same,GI50,SNB-78 CNS,> 100 µM
same,TGI,SNB-78 CNS,> 100 µM
same,GI50,MOLT-4 leukemia,> 100 µM
same,TGI,MOLT-4 leukemia,> 100 µM
same,GI50,SF-268 CNS,> 100 µM
same,TGI,SF-268 CNS,> 100 µM
same,GI50,DMS 114 small cell lung,> 100 µM
same,TGI,DMS 114 small cell lung,> 100 µM
same,GI50,TK-10 renal,> 100 µM
same,TGI,TK-10 renal,> 100 µM
same,GI50,UACC-257 melanoma,> 100 µM
same,TGI,UACC-257 melanoma,> 100 µM
same,GI50,DMS 273 small cell lung,> 100 µM
same,TGI,DMS 273 small cell lung,> 100 µM
same,GI50,XF 498 CNS,> 100 µM
same,TGI,XF 498 CNS,> 100 µM
same,GI50,M19-MEL melanoma,> 100 µM
same,TGI,M19-MEL melanoma,> 100 µM
same,GI50,786-0 renal,> 100 µM
same,TGI,786-0 renal,> 100 µM
same,GI50,COLO 205 colon,> 100 µM
same,TGI,COLO 205 colon,> 100 µM
same,GI50,NCI-H522 lung,> 100 µM
same,TGI,NCI-H522 lung,> 100 µM
same,GI50,UACC-62 melanoma,> 100 µM
same,TGI,UACC-62 melanoma,> 100 µM
same,GI50,U251 CNS,> 100 µM
same,TGI,U251 CNS,> 100 µM
same,GI50,LXFL 529 NSCLC,> 100 µM
same,TGI,LXFL 529 NSCLC,> 100 µM
same,GI50,A549 NSCLC,> 100 µM
same,TGI,A549 NSCLC,> 100 µM
same,GI50,OVCAR-8 ovarian,> 100 µM
same,TGI,OVCAR-8 ovarian,> 100 µM
same,GI50,SK-MEL-28 melanoma,> 100 µM
same,TGI,SK-MEL-28 melanoma,> 100 µM
same,GI50,SF-295 CNS,> 100 µM
same,TGI,SF-295 CNS,> 100 µM
same,GI50,IGROV1 ovarian,> 100 µM
same,TGI,IGROV1 ovarian,> 100 µM
same,GI50,HCT-116 colon,> 100 µM
same,TGI,HCT-116 colon,> 100 µM
same,GI50,OVCAR-4 ovarian,> 100 µM
same,TGI,OVCAR-4 ovarian,> 100 µM
same,GI50,ACHN renal,> 100 µM
same,TGI,ACHN renal,> 100 µM
same,GI50,SK-MEL-5 melanoma,> 100 µM
same,TGI,SK-MEL-5 melanoma,> 100 µM
same,GI50,SF-539 CNS,> 100 µM
same,TGI,SF-539 CNS,> 100 µM
same,GI50,SNB-19 CNS,> 100 µM
same,TGI,SNB-19 CNS,> 100 µM
